Laboratory results taken from patent US8927500B2, “Peptidomimetic macrocycles” (Aileron Therapeutics, Inc., priority 2012, dated 2015).

How the values were obtained:
RKO cells = experiment: Cell viability assay (MTT), RKO; conditions: read-out: RKO EC50 (72 h)
SJSA-1 cells [1] = experiment: Cell viability assay (MTT), SJSA-1; conditions: read-out: SJSA-1 EC50 (72 h)
Caspase 3 = Caspase 3 detection assay in SJSA1 cells; format: cell-based; conditions: 48 h, Caspase 3 activation over DMSO-treated cells
SJSA-1 cells [2] = experiment: Cell lysis by peptidomimetic macrocycles (LDH release); format: cell-based; conditions: 1 h at 37C
[3] = Circular dichroism (CD) analysis of alpha-helicity; format: physicochemical; conditions: difference 50% TFE minus benign
p21 = experiment: P21 ELISA assay in SJSA1 cells; format: cell-based, Human

Row | Compound | EC50 (SJSA-1 cells [1]) | EC50 (RKO cells) | also measured
1 | CC[C@H](C)[C@H](NC(=O)[C@H](C)NC(=O)[C@H](C)NC(=O)[C@]1(C)CCCC=CCCCCCC[C@@](C)(NC(=O)[C@H](Cc2ccccc2)NC(=O)[C@@H](NC(=O)[C@H](CC(C)C)NC(C)=O)[C@@H](C)O)C(=O)N[C@@H](C)C(=O)N[C@@H](Cc2ccc(O)cc2)C(=O)N[C@@H](Cc2c[nH]c3ccccc23)C(=O)N[C@@H](C)C(=O)N[C@@H](CCC(N)=O)C(=O)N[C@@H](CC(C)C)C(=O)N1)C(=O)N[C@@H](C)C(N)=O (single isomer, unassigned) [compound 65] | < 5 µM | 5 to 15 µM | –
2 | CC(C)C[C@H](NC(=O)CN(C)C)C(=O)N[C@H](C(=O)N[C@@H](Cc1ccccc1)C(=O)N[C@]1(C)CCCCCCC=CCCC[C@@](C)(C(=O)N[C@@H](C)C(=O)N[C@@H](C)C(=O)N[C@@H](C)C(=O)N[C@@H](C)C(=O)N[C@@H](C)C(=O)N[C@H](C)C(N)=O)NC(=O)[C@H](CC(C)C)NC(=O)[C@H](CCC(N)=O)NC(=O)[C@H](C)NC(=O)[C@H](Cc2c[nH]c3ccccc23)NC(=O)[C@H](Cc2ccc(O)cc2)NC(=O)[C@H](C)NC1=O)[C@@H](C)O (single isomer, unassigned) [compound 436] | < 5 µM | < 5 µM | –
3 | CC(=O)N[C@@H](CC(C)C)C(=O)N[C@H](C(=O)N[C@@H](Cc1ccc(F)c(F)c1)C(=O)N[C@]1(C)CCCCCCC=CCCC[C@@](C)(C(=O)N[C@@H](CO)C(=O)N[C@@H](C)C(=O)N[C@@H](C)C(N)=O)NC(=O)[C@H](CC(C)C)NC(=O)[C@H](CCC(N)=O)NC(=O)[C@H](C)NC(=O)[C@H](Cc2c[nH]c3ccccc23)NC(=O)[C@H](Cc2ccc(O)cc2)NC(=O)[C@H](CCC(=O)O)NC1=O)[C@@H](C)O (single isomer, unassigned) [compound 158] | – | > 30 µM | caspase 3 uM (Caspase 3; 3 uM peptide): 1.67
4 | CC(=O)N[C@@H](CC(C)C)C(=O)N[C@H](C(=O)N[C@@H](Cc1ccccc1)C(=O)N[C@]1(C)CCCCCCC=CCCC[C@@](C)(C(=O)N[C@@H](CO)C(=O)N[C@H](C(=O)N[C@@H](CO)C(N)=O)C(C)C)NC(=O)[C@H](CC(C)C)NC(=O)[C@H](CCC(N)=O)NC(=O)[C@H](C)NC(=O)[C@H](Cc2c[nH]c3ccccc23)NC(=O)[C@H](Cc2ccc(O)cc2)NC(=O)[C@H](C)NC1=O)[C@@H](C)O [compound 121] | – | < 5 µM | 12.5 uM % Lysed cells (1 h LDH) (SJSA-1 cells [2]): 0%
5 | CC(C)C[C@H](NC(=O)CN(C)C)C(=O)N[C@H](C(=O)N[C@@H](Cc1ccccc1)C(=O)N[C@]1(C)CCCCCC/C=C/CCC[C@@](C)(C(=O)N[C@@H](C)C(=O)N[C@@H](C)C(=O)N[C@@H](C)C(=O)N[C@@H](C)C(=O)N[C@@H](C)C(=O)N[C@H](C)C(N)=O)NC(=O)[C@H](CC(C)C)NC(=O)[C@H](CCC(N)=O)NC(=O)[C@H](C)NC(=O)[C@H](Cc2c[nH]c3ccccc23)NC(=O)[C@H](Cc2ccc(O)cc2)NC(=O)[C@H](C)NC1=O)[C@@H](C)O [compound 437] | < 5 µM | < 5 µM | –

Now from value to compound, other results behind:

Row | EC50 (SJSA-1 cells [1]) | Compound | EC50 (RKO cells) | also measured
6 | < 5 µM | CCCC[C@H](NC(=O)[C@H](C)NC(=O)[C@H](C)NC(=O)[C@]1(C)CCC/C=C/CCCCCC[C@@](C)(NC(=O)[C@H](Cc2ccccc2)NC(=O)[C@@H](NC(=O)[C@H](CC(C)C)NC(C)=O)[C@@H](C)O)C(=O)N[C@@H](C)C(=O)N[C@@H](Cc2ccc(O)cc2)C(=O)N[C@@H](Cc2c[nH]c3ccccc23)C(=O)N[C@@H](C)C(=O)N[C@@H](CCC(N)=O)C(=O)N[C@@H](CC(C)C)C(=O)N1)C(=O)N[C@@H](C)C(N)=O [compound 69] | < 5 µM | Molar Ellipticity TFE-Molar Ellipticity Benign [3]: −21407.1 deg cm2 dmol-1; p21 0.3 uM (p21; 0.3 uM peptide): 272; p21 1 uM (p21; 1 uM peptide): 458.72; p21 3 uM (p21; 3 uM peptide): 1281.39; p21 10 uM (p21; 10 uM peptide): 2138.88; p21 30 uM (p21; 30 uM peptide): 1447.22
7 | < 5 µM | CC[C@H](C)[C@H](NC(=O)[C@H](C)NC(=O)[C@H](C)NC(=O)[C@]1(C)CCC/C=C/CCCCCC[C@@](C)(NC(=O)[C@H](Cc2ccccc2)NC(=O)[C@@H](NC(=O)[C@H](CC(C)C)NC(C)=O)[C@@H](C)O)C(=O)N[C@@H](C)C(=O)N[C@@H](Cc2ccc(O)cc2)C(=O)N[C@@H](Cc2c[nH]c3ccccc23)C(=O)N[C@@H](C)C(=O)N[C@@H](CCC(N)=O)C(=O)N[C@@H](CC(C)C)C(=O)N1)C(=O)N[C@H](C)C(N)=O [compound 71] | < 5 µM | caspase 10 uM (Caspase 3; 10 uM peptide): 14.72
8 | < 5 µM | CC[C@H](C)[C@H](NC(=O)[C@H](C)NC(=O)[C@H](C)NC(=O)[C@]1(C)CCCC=CCCCCCC[C@@](C)(NC(=O)[C@H](Cc2ccccc2)NC(=O)[C@@H](NC(=O)[C@H](CC(C)C)NC(C)=O)[C@@H](C)O)C(=O)N[C@@H](C)C(=O)N[C@@H](Cc2ccc(O)cc2)C(=O)N[C@@H](Cc2c[nH]c3ccccc23)C(=O)N[C@@H](C)C(=O)N[C@@H](CCC(N)=O)C(=O)N[C@@H](CC(C)C)C(=O)N1)C(=O)N[C@H](C)C(N)=O (single isomer, unassigned) [compound 70] | < 5 µM | –
9 | < 5 µM | CCCC[C@H](NC(=O)[C@H](C)NC(=O)[C@H](C)NC(=O)[C@]1(C)CCCC=CCCCCCC[C@@](C)(NC(=O)[C@H](Cc2ccccc2)NC(=O)[C@@H](NC(=O)[C@H](CC(C)C)NC(C)=O)[C@@H](C)O)C(=O)N[C@@H](C)C(=O)N[C@@H](Cc2ccc(O)cc2)C(=O)N[C@@H](Cc2c[nH]c3ccccc23)C(=O)N[C@@H](C)C(=O)N[C@@H](CCC(N)=O)C(=O)N[C@@H](CC(C)C)C(=O)N1)C(=O)N[C@@H](C)C(N)=O (single isomer, unassigned) [compound 68] | – | –
